Experimental data: paper PMC9186491, “Novel Small Molecule Tyrosine Kinase 2 Pseudokinase Ligands Block Cytokine-Induced TYK2-Mediated Signaling Pathways” (Frontiers in Immunology, 2022)
Where “and” joins values, the source holds several entries; their conditions need not be identical. Equal entries are not always repeated.

The chains behind the UniProt entries cited, without tags or fusion partners. Residues count along the entry.
UniProt Q12809, whole entry: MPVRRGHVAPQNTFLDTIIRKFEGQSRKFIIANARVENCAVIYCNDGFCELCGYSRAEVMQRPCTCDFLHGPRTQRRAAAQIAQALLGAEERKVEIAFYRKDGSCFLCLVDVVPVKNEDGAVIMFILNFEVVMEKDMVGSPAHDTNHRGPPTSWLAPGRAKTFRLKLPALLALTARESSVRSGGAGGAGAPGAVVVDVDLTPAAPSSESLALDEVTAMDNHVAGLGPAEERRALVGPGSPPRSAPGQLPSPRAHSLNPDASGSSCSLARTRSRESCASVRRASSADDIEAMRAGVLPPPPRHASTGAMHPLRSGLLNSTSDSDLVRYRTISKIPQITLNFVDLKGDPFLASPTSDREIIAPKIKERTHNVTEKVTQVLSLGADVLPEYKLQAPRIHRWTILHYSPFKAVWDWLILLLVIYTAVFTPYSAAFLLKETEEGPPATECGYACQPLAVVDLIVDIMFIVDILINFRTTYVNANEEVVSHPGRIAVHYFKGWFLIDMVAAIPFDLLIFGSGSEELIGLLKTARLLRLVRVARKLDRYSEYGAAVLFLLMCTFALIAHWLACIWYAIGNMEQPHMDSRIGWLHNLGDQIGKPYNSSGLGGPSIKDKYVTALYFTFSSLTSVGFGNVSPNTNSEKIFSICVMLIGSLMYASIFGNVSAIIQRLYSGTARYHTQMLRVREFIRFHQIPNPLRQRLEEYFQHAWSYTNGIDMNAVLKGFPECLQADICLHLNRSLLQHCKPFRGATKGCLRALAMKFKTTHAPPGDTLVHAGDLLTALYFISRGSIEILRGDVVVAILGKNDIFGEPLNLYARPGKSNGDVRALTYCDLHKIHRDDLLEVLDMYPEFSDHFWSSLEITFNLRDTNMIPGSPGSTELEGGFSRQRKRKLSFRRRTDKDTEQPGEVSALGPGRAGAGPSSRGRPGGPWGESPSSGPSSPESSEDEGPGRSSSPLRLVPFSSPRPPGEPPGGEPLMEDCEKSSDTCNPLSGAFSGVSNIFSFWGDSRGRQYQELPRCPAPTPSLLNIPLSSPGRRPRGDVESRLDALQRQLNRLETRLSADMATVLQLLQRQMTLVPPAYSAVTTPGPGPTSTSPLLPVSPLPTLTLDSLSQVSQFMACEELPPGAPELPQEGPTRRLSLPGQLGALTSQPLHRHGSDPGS
UniProt P29597, 589-875 limits assumed: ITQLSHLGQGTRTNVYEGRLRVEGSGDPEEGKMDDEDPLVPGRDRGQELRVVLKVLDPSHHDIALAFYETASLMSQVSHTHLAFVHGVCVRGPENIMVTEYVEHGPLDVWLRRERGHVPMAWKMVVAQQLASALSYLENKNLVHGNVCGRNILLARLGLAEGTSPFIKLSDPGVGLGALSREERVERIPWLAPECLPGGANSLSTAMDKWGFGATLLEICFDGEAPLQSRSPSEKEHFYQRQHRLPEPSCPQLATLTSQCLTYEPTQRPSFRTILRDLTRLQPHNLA

Legend:
[1] = tested on: IFNα-induced TYK2/phosphoSTAT1 (Tyr701) in Kit225 T cells; test: Kit225 T cell assay for IFNα-induced TYK2/phosphoSTAT1 activity; type: cell-based, human; conditions: read-out: IC50 IFNα-induced-STAT1 Phosphorylation, 80 ng/mL IFNα, AlphaLISA
[2] = tested on: IL23-induced TYK2/phosphoSTAT3 (Tyr705) in Kit225 T cells; test: Kit225 T cell assay for IL23-induced TYK2/phosphoSTAT3 activity; type: cell-based, human; conditions: read-out: IC50 IL23-induced-STAT3 Phosphorylation, 100 ng/mL IL23, AlphaLISA
[3] = tested on: IFNα-induced CXCL10 production in human whole blood; test: IFNα-induced CXCL10 production in human whole blood; type: cell-based; conditions: IFNα 16 hours
[4] = molecular target: hERG (Homo sapiens, UniProt Q12809)
[5] = molecular target: TYK2 JH2 pseudokinase domain (Homo sapiens, UniProt P29597); test: KdELECT competition binding assay, TYK2 JH2; conditions: read-out: TYK2 JH2 Pseudokinase Domain Binding (Kd); isolated TYK2 JH2 domain

Compound | IC50 [1] | IC50 [2] | TYK2-associated IFNα-induced-CXCL10 Production in Human Whole Blood: IC50 [3] | IC50 [4] | Kd [5]
[2H]C([2H])([2H])NC(=O)c1nnc(NC(=O)C2CC2)cc1Nc1cccc(-c2nc3c(o2)CN(S(C)(=N)=O)C3)c1OC (single isomer, unassigned) [SHR4997] | 37 nM and 28 nM | 43 nM and 49 nM | 280 nM | 19000 nM | 0.0043 nM
[2H]C([2H])([2H])NC(=O)c1nnc(NC(=O)C2CC2)cc1Nc1cccc(-c2nc3c(o2)CN(S(C)(=N)=O)C3)c1OC (single isomer, unassigned) [SHR4995] | 32 nM and 26 nM | 39 nM and 53 nM | 290 nM | > 30000 nM | 0.0034 nM
